Values of other authors in patent publication US20080025946A1, “INTERLEUKIN 21 AND TYROSINE KINASE INHIBITOR COMBINATION THERAPY” (priority 2006, published 2008).

Tested on: advanced kidney cancer
Conditions: high-dose; cited from earlier work

IL-2: high-dose interleukin 2 (IL-2), immunotherapy for advanced kidney cancer
durable complete responses, share of selected patients: approximately 7%
